Experimental data from patent US20090099157A1, “TETRAHYDRO-PYRAZOLO-PYRIDINE THIOETHER MODULATORS OF CATHEPSIN S” (priority 2007, published 2009).

Amino acid sequences for entries named in this document (tags omitted). Residues count along the entry.
UniProt P25774, 115-331: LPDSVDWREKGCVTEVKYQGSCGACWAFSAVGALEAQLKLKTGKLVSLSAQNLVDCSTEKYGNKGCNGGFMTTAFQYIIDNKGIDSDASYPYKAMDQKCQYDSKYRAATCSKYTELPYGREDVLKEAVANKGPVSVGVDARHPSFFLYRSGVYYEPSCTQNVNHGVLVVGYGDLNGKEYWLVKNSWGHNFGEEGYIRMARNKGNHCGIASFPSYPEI

Target: Recombinant human cathepsin S (CatS) (Homo sapiens, UniProt P25774)
Assay: biochemical

Compound | IC50 [µM]
CC1CCN(C[C@H](O)Cn2nc(-c3ccc(C(F)(F)F)c(SCCN4CCCC(F)C4)c3)c3c2CCN(S(C)(=O)=O)C3)CC1 (stereo partly drawn) [Example 471, (2S)-1-{3-[3-{[2-(3-Fluoropiperidin-1-yl)ethyl]sulfanyl}-4-(trifluoromethyl)phenyl]-5-(methylsulfonyl)-4,5,6,7-tetrahydro-1H-pyrazolo[4,3-c]pyridin-1-yl}-3-(4-methylpiperidin-1-yl)propan-2-ol] | 0.17
CS(=O)(=O)N1CCc2c(c(-c3ccc(C(F)(F)F)c(SCCN4CCCC(F)C4)c3)nn2C[C@@H](O)CN2CCC(C(N)=O)CC2)C1 (stereo partly drawn) [Example 608, 1-[(2S)-3-{3-[3-{[2-(3-Fluoropiperidin-1-yl)ethyl]sulfanyl}-4-(trifluoromethyl)phenyl]-5-(methylsulfonyl)-4,5,6,7-tetrahydro-1H-pyrazolo[4,3-c]pyridin-1-yl}-2-hydroxypropyl]piperidine-4-carboxamide] | 0.18
CCCNCCSc1cc(-c2nn(CCCN3CCC(N4CCCC4)CC3)c3c2CN(S(C)(=O)=O)CC3)ccc1C(F)(F)F [Example 440, N-(2-{[5-{5-(Methylsulfonyl)-1-[3-(4-pyrrolidin-1-ylpiperidin-1-yl)propyl]-4,5,6,7-tetrahydro-1H-pyrazolo[4,3-c]pyridin-3-yl}-2-(trifluoromethyl)phenyl]sulfanyl}ethyl)propan-1-amine] | 0.74
OC1CCCN(CCSc2cc(-c3nn(CC(O)CN4CCCCC4)c4c3CNCC4)ccc2C(F)(F)F)C1 (centres unmarked) [Example 295, 1-[2-({5-[1-(2-Hydroxy-3-piperidin-1-ylpropyl)-4,5,6,7-tetrahydro-1H-pyrazolo[4,3-c]pyridin-3-yl]-2-(trifluoromethyl)phenyl}sulfanyl)ethyl]piperidin-3-ol] | > 20
CC(F)(F)C1CCN(C[C@H](O)Cn2nc(-c3ccc(C(F)(F)F)c(SCCN4CC[C@H](F)C4)c3)c3c2CCN(S(C)(=O)=O)C3)CC1 [Example 636, (2S)-1-[4-(1,1-Difluoroethyl)piperidin-1-yl]-3-{3-[3-({2-[(3S)-3-fluoropyrrolidin-1-yl]ethyl}sulfanyl)-4-(trifluoromethyl)phenyl]-5-(methylsulfonyl)-4,5,6,7-tetrahydro-1H-pyrazolo[4,3-c]pyridin-1-yl}propan-2-ol] | 0.41

The remaining lines, values ahead:

IC50 [µM] | Compound
0.04 | CS(=O)(=O)N1CCc2c(c(-c3ccc(C(F)(F)F)c(SCC(=O)N4CC[C@@H](O)C4)c3)nn2CC(O)CN2CCC(C(=O)N3CCCC3)CC2)C1 (stereo partly drawn) [Example 805, (3R)-1-[({5-[1-{2-Hydroxy-3-[4-(pyrrolidin-1-ylcarbonyl)piperidin-1-yl]propyl}-5-(methylsulfonyl)-4,5,6,7-tetrahydro-1H-pyrazolo[4,3-c]pyridin-3-yl]-2-(trifluoromethyl)phenyl}sulfanyl)acetyl]pyrrolidin-3-ol]
0.3 | CS(=O)(=O)N1CCc2c(c(-c3ccc(C(F)(F)F)c(SCCN4CCOC(CO)C4)c3)nn2CC(O)CN2CCC(N3CCCC3)CC2)C1 (centres unmarked) [Example 760, 1-{3-[3-({2-[2-(Hydroxymethyl)morpholin-4-yl]ethyl}sulfanyl)-4-(trifluoromethyl)phenyl]-5-(methylsulfonyl)-4,5,6,7-tetrahydro-1H-pyrazolo[4,3-c]pyridin-1-yl}-3-(4-pyrrolidin-1-ylpiperidin-1-yl)propan-2-ol]
0.33 | CS(=O)(=O)N1CCc2c(c(-c3ccc(C(F)(F)F)c(SCCN4CCCC(c5ccccc5)C4)c3)nn2CCCN2CCC(N3CCCC3=O)CC2)C1 (centres unmarked) [Example 864, 1-[1-(3-{5-(Methylsulfonyl)-3-[3-{[2-(3-phenylpiperidin-1-yl)ethyl]sulfanyl}-4-(trifluoromethyl)phenyl]-4,5,6,7-tetrahydro-1H-pyrazolo[4,3-c]pyridin-1-yl}propyl)piperidin-4-yl]pyrrolidin-2-one]
